# CycPeptMPDB entries from one study

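Conditions beyond the assay type are not listed; see the original paper. The list need not hold all peptides of the study. Entries at the database's floor value (log10 P of -10) are not listed.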

PAMPA measures passive passage through an artificial lipid membrane.
Values are log10 P with P in cm/s, so -5 is more permeable than -7.

structure (SMILES)	PAMPA (log10 cm/s)
CC(C)C[C@@H]1C(=O)N[C@@H](Cc2ccccc2)C(=O)N2CCC[C@@H]2C(=O)N(C)[C@@H](C)C(=O)N[C@H](CC(C)C)C(=O)N(C)[C@H](CC(C)C)C(=O)N2CCC[C@@H]2C(=O)N1C	-5.71
CC(C)C[C@@H]1C(=O)N(C)[C@H](CC(C)C)C(=O)N2CCC[C@@H]2C(=O)N(C)[C@@H](CC(C)C)C(=O)N[C@@H](Cc2ccccc2)C(=O)N2CCC[C@@H]2C(=O)N[C@@H](Cc2ccccc2)CC(=O)N1C	-5.16
CC(C)C[C@@H]1C(=O)N2CCC[C@H]2C(=O)N(Cc2ccccc2)CC(=O)N[C@@H](Cc2ccccc2)C(=O)N2CCC[C@@H]2C(=O)N(C)[C@@H](C)C(=O)N(C)[C@H](CC(C)C)C(=O)N1C	-5.81
CC(C)C[C@@H]1NC(=O)[C@@H]2CCCN2C(=O)[C@@H](CC(C)C)N(C)C(=O)CN(Cc2ccccc2)C(=O)[C@H](C)N(C)C(=O)[C@H]2CCCN2C(=O)[C@H](Cc2ccccc2)NC1=O	-5.97
CC(C)C[C@H]1NC(=O)[C@@H](C)N(C)C(=O)[C@@H]2CCCN2C(=O)[C@H](Cc2ccccc2)NC(=O)CN(Cc2ccccc2)C(=O)[C@H]2CCCN2C(=O)[C@H](CC(C)C)N(C)C1=O	-5.40
CC(C)C[C@@H]1NC(=O)[C@H](C)N(C)C(=O)[C@@H]2CCCN2C(=O)[C@H](Cc2ccccc2)NC(=O)[C@H](CC(C)C)N(C)C(=O)[C@@H]2CCCN2C(=O)[C@@H](CC(C)C)N(C)C1=O	-5.28
CC(C)C[C@@H]1C(=O)N[C@@H](Cc2ccccc2)C(=O)N2CCC[C@@H]2C(=O)N[C@@H](Cc2ccccc2)CC(=O)N[C@H](CC(C)C)C(=O)N(Cc2ccccc2)CC(=O)N2CCC[C@H]2C(=O)N1C	-5.68
CC(C)C[C@@H]1NC(=O)[C@@H]2CCCN2C(=O)[C@H](CC(C)C)N(C)C(=O)[C@@H](CC(C)C)N(C)C(=O)[C@H](C)NC(=O)[C@H]2CCCN2C(=O)[C@H](Cc2ccccc2)NC1=O	-5.90
CC(C)C[C@@H]1C(=O)N2CCC[C@H]2C(=O)N(C)[C@H](CC(C)C)C(=O)N[C@@H](Cc2ccccc2)C(=O)N2CCC[C@H]2C(=O)N(C)[C@H](C)C(=O)N[C@H](CC(C)C)C(=O)N1C	-5.26
CC(C)C[C@H]1NC(=O)CN(Cc2ccccc2)C(=O)[C@H](C)N(C)C(=O)[C@H]2CCCN2C(=O)[C@H](Cc2ccccc2)NC(=O)CN(Cc2ccccc2)C(=O)[C@@H]2CCCN2C1=O	-6.01
CC(C)C[C@@H]1C(=O)N[C@@H](Cc2ccccc2)CC(=O)N2CCC[C@H]2C(=O)N(C)[C@@H](CC(C)C)C(=O)N[C@@H](Cc2ccccc2)C(=O)N2CCC[C@@H]2C(=O)N[C@@H](C)C(=O)N1C	-5.94
CC(C)C[C@H]1C(=O)N[C@@H](Cc2ccccc2)CC(=O)N2CCC[C@@H]2C(=O)N(Cc2ccccc2)CC(=O)N[C@@H](Cc2ccccc2)C(=O)N2CCC[C@@H]2C(=O)N(C)[C@@H](C)C(=O)N1C	-5.80
CC(C)C[C@H]1NC(=O)[C@H](C)NC(=O)[C@@H]2CCCN2C(=O)[C@H](Cc2ccccc2)NC(=O)[C@@H](CC(C)C)NC(=O)[C@H]2CCCN2C(=O)C[C@H](Cc2ccccc2)NC1=O	-6.56
CC(C)C[C@@H]1C(=O)N2CCC[C@H]2C(=O)N(Cc2ccccc2)CC(=O)N[C@@H](Cc2ccccc2)C(=O)N2CCC[C@@H]2C(=O)N(C)[C@H](C)C(=O)N(C)[C@@H](CC(C)C)C(=O)N1C	-5.42
CC(C)C[C@@H]1C(=O)N[C@@H](Cc2ccccc2)C(=O)N[C@H](C)C(=O)N(C)[C@@H](CC(C)C)C(=O)N(C)[C@H](CC(C)C)C(=O)N2CCC[C@@H]2C(=O)N1C	-5.68
CC(C)C[C@@H]1NC(=O)[C@H](C)NC(=O)[C@H]2CCCN2C(=O)[C@H](Cc2ccccc2)NC(=O)CN(Cc2ccccc2)C(=O)[C@H]2CCCN2C(=O)[C@@H](CC(C)C)N(C)C1=O	-6.18
CC(C)C[C@@H]1NC(=O)[C@H]2CCCN2C(=O)[C@H](CC(C)C)N(C)C(=O)[C@H](CC(C)C)N(C)C(=O)[C@@H](C)N(C)C(=O)[C@@H]2CCCN2C(=O)[C@H](Cc2ccccc2)NC1=O	-6.21

Excerpt, the opening 2 entries:

structure (SMILES)	PAMPA (log10 cm/s)
CC(C)C[C@@H]1C(=O)N[C@@H](Cc2ccccc2)C(=O)N2CCC[C@@H]2C(=O)N(C)[C@@H](C)C(=O)N[C@H](CC(C)C)C(=O)N(C)[C@H](CC(C)C)C(=O)N2CCC[C@@H]2C(=O)N1C	-5.71
CC(C)C[C@@H]1C(=O)N(C)[C@H](CC(C)C)C(=O)N2CCC[C@@H]2C(=O)N(C)[C@@H](CC(C)C)C(=O)N[C@@H](Cc2ccccc2)C(=O)N2CCC[C@@H]2C(=O)N[C@@H](Cc2ccccc2)CC(=O)N1C	-5.16

Source: CycPeptMPDB (Li et al. 2023), which took these values from Townsend et al. 2020, doi:10.26434/chemrxiv.13335941.v1.